Assay results taken from patent US9518052B2, “Pyrazolopyridines and pyrazolopyrimidines” (Pfizer Inc., priority 2014, dated 2016).

Chains of the proteins cited; added tags and fusions are not shown.
UniProt P23458, whole entry, species assumed: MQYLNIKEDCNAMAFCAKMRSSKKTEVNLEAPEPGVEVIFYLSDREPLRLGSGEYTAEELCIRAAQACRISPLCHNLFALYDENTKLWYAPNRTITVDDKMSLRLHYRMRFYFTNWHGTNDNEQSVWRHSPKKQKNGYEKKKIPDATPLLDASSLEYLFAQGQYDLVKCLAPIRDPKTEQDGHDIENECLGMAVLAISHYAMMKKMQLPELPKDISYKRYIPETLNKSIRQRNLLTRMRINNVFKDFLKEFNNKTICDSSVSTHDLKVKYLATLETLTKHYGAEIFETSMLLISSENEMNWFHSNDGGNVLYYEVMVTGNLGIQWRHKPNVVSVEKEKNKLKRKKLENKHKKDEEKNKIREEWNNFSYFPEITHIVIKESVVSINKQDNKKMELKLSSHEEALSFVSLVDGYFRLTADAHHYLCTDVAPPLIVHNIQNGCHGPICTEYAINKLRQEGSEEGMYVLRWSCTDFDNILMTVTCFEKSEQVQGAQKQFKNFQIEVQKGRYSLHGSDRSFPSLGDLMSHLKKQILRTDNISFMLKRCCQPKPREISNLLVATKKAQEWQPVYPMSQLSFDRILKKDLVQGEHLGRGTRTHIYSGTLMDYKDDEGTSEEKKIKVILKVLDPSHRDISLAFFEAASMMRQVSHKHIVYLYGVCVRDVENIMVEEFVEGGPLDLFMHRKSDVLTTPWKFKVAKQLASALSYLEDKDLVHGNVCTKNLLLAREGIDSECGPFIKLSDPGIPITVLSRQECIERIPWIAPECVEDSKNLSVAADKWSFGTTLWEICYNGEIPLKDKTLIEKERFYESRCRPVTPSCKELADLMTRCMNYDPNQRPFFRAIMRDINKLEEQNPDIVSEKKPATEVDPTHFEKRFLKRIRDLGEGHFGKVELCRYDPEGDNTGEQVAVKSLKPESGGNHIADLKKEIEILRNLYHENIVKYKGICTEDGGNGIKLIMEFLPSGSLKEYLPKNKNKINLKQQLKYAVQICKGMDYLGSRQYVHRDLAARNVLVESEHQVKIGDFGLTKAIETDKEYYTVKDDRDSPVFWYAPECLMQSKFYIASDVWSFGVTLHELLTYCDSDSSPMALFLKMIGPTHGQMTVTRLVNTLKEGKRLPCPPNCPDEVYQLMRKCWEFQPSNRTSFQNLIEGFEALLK

Target: JAK1 (Homo sapiens (Human), UniProt P23458)
Test: JAK Caliper Enzyme Assay at 1 mM ATP (JAK1)
Format: biochemical
Details: Caliper assay at 1 mM ATP
Protocol: JAK Caliper Enzyme Assay at 1 mM ATP
Test article was solubilized in dimethyl sulfoxide (DMSO) to a stock concentration of 30 mM. An 11-point half log dilution series was created in DMSO with a top concentration of 600 μM. […] The compound plates were diluted 1 to 60 resulting in a top final assay compound concentration of 10 μM and a 2% DMSO concentration.
Test article and assay controls were added to a 384-well plate. Reaction mixtures contained 20 mM HEPES, pH 7.4, 10 mM magnesium chloride, 0.01% bovine serum albumin (BSA), 0.0005% Tween 20, 1 mM ATP and 1 μM peptide substrate. […] Enzyme concentrations and incubation times were optimized for each new enzyme preps and were modified slightly over time to ensure 20%-30% phosphorylation. The assays were stopped with a final concentration of 10 mM EDTA, 0.1% Coating Reagent and 100 mM HEPES, pH=7.4. The assay plates were placed on a Caliper Life Science Lab Chip 3000 (LC3000) instrument, and each well was sampled using appropriate separation conditions to measure the unphosphorylated and phosphorylated peptide.

N-benzyl-2-[6-(2-ethyl-4-hydroxyphenyl)-1H-pyrazolo[4,3-c]pyridin-4-yl]-1,2,3,4-tetrahydroiso-quinoline-5-carboxamide formate [Example 117]
IC50: 7.2 nM
